Measurements reported in patent US8952177B2 (Janssen Pharmaceutica NV, priority 2013, dated 2015).

Sequences of proteins named here, by UniProt entry; tags and fusion partners are left off. A change or cut given only in a name is not applied to a line headed by its entry.
UniProt P20292: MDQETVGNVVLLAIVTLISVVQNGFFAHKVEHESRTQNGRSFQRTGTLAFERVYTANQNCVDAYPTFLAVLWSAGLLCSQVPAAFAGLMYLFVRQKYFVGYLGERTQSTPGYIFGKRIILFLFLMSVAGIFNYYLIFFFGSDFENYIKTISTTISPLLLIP

Target: human FLAP (Homo sapiens (Human), UniProt P20292)
Assay: FLAP binding assay (HTRF format)
Conditions: human FLAP-containing Sf-9 membranes, 25 nM HTRF ligand, 2 h; average of runs; read-out: FLAP Binding wild type HTRF Ki

pKi	SMILES
8.11	Cc1ccc(COc2cc(F)c3nc(C4CCCC[C@H]4C(=O)O)n(Cc4ccc(OC(F)(F)F)cc4)c3c2)nc1 (mixture of isomers) [Example 66, racemic cis-2-{4-Fluoro-6-[(5-methylpyridin-2-yl)methoxy]-1-[4-(trifluoromethoxy)benzyl]-1H-benzimidazol-2-yl}cyclohexanecarboxylic acid as the TFA salt]
7.85	Cc1ccc(Cn2c(C3CCCC[C@H]3C(=O)O)nc3c(F)cc(OCc4ccc(C)cn4)cc32)cc1 (mixture of isomers) [Example 68, racemic cis-2-{4-Fluoro-1-(4-methylbenzyl)-6-[(5-methylpyridin-2-yl)methoxy]-1H-benzimidazol-2-yl}cyclohexanecarboxylic acid as the TFA salt]
8.62	Cc1ccc(COc2ccc3nc(C4CCCC[C@H]4C(=O)O)n(Cc4ccc(N5CCC(F)(F)C5)cc4)c3c2)nc1 (mixture of isomers) [Example 152, racemic cis-2-{1-[4-(3,3-Difluoropyrrolidin-1-yl)benzyl]-6-[(5-methylpyridin-2-yl)methoxy]-1H-benzimidazol-2-yl}cyclohexanecarboxylic acid]
8.52	Cc1ccc(COc2ccc3nc([C@H]4CCCC[C@@H]4C(=O)O)n(Cc4c(F)cc(Br)cc4F)c3c2)nc1 (racemic) [Example 140, racemic trans-2-{1-(4-Bromo-2,6-difluorobenzyl)-6-[(5-methylpyridin-2-yl)methoxy]-1H-benzimidazol-2-yl}cyclohexanecarboxylic acid]
~6.08	Cc1ccc(COc2ccc3nc([C@H]4CCCC[C@H]4C(=O)O)n(Cc4ccc(Br)cc4)c3c2)nc1 (single isomer, unassigned) [Example 3]
7.62	Cc1ccc(COc2ccc3nc([C@@H]4CCCC[C@@H]4C(=O)O)n(Cc4ccc(OC(F)(F)F)cc4Br)c3c2)nc1 (racemic) [Example 102, racemic cis-2-{1-[2-Bromo-4-(trifluoromethoxy)benzyl]-6-[(5-methylpyridin-2-yl)methoxy]-1H-benzimidazol-2-yl}cyclohexanecarboxylic acid as the HCl salt]
8.96	Cc1cnc(COc2ccc3nc([C@@H]4CCCC[C@@H]4C(=O)O)n(Cc4ccc(Br)cc4)c3c2)c(F)c1 (racemic) [Example 125, racemic cis-2-{1-(4-Bromobenzyl)-6-[(3-fluoro-5-methylpyridin-2-yl)methoxy]-1H-benzimidazol-2-yl}cyclohexanecarboxylic acid]
8.36	Cc1ccc(COc2ccc3nc(C4CCCC[C@H]4C(=O)O)n(Cc4ccc(N5CCCC(F)(F)C5)cc4)c3c2)nc1 (mixture of isomers) [Example 153, racemic cis-2-{1-[4-(3,3-Difluoropiperidin-1-yl)benzyl]-6-[(5-methylpyridin-2-yl)methoxy]-1H-benzimidazol-2-yl}cyclohexanecarboxylic acid]
8.14	Cc1ccc(COc2ccc3nc(C4CCCC[C@H]4C(=O)O)n(Cc4ccc(N5CC(F)(F)C5)cc4)c3c2)nc1 (mixture of isomers) [Example 159, racemic cis-2-{1-[4-(3,3-Difluoroazetidin-1-yl)benzyl]-6-[(5-methylpyridin-2-yl)methoxy]-1H-benzimidazol-2-yl}cyclohexanecarboxylic acid]
6.89	Cc1ccc(COc2ccc3nc(CC(C)(C)C(=O)O)n(Cc4ccc(Br)cc4)c3c2)nc1 [Example 118, 3-{1-(4-Bromobenzyl)-6-[(5-methylpyridin-2-yl)methoxy]-1H-benzimidazol-2-yl}-2,2-dimethylpropanoic acid as the TFA salt]
8.10	Cc1ccc(COc2ccc3nc([C@H]4CCCC[C@H]4C(=O)O)n(Cc4ccc(OC(F)(F)F)c(F)c4)c3c2)nc1 (racemic) [Example 20, racemic cis-2-{1-[3-Fluoro-4-(trifluoromethoxy)benzyl]-6-[(5-methylpyridin-2-yl)methoxy]-1H-benzimidazol-2-yl}cyclohexanecarboxylic acid]
7.96	Cc1ccc(COc2ccc3nc(C4CCCC[C@H]4C(=O)O)n(Cc4ccc(N5CC(F)(F)C5)cc4F)c3c2)nc1 (mixture of isomers) [Example 165, racemic cis-2-{1-[4-(3,3-Difluoroazetidin-1-yl)-2-fluorobenzyl]-6-[(5-methylpyridin-2-yl)methoxy]-1H-benzimidazol-2-yl}cyclohexanecarboxylic acid]
< 5.00	Cc1ccc(COc2ccc3nc([C@@H]4[C@H](C(=O)O)C4(C)C)n(Cc4ccc(Br)cc4F)c3c2)nc1 (stereo in doubt) [Example 17, (1R*,3S*)-3-{1-(4-Bromo-2-fluorobenzyl)-6-[(5-methylpyridin-2-yl)methoxy]-1H-benzimidazol-2-yl}-2,2-dimethylcyclopropanecarboxylic acid]
8.89	Cc1cnc(COc2ccc3nc([C@@H]4CCCC[C@@H]4C(=O)O)n(Cc4ccc(N5CCCCC5)cc4)c3c2)c(F)c1 (racemic) [Example 179, racemic cis-2-{6-[(3-Fluoro-5-methylpyridin-2-yl)methoxy]-1-(4-piperidin-1-ylbenzyl)-1H-benzimidazol-2-yl}cyclohexanecarboxylic acid]
6.57	Cc1ccc(COc2ccc3nc([C@H]4CCCC[C@H]4C(=O)O)n(Cc4ccc(N5CCCCC5)cc4)c3c2)nc1 (stereo in doubt) [Example 158, (1R*,2S*)-2-{6-[(5-Methylpyridin-2-yl)methoxy]-1-(4-piperidin-1-ylbenzyl)-1H-benzimidazol-2-yl}cyclohexanecarboxylic acid]
7.31	Cc1ccc(COc2ccc3nc([C@@H]4[C@H](C(=O)O)C4(C)C)n(Cc4ccc(Br)cc4F)c3c2)nc1 (stereo in doubt) [Example 15, racemic cis-3-{1-(4-Bromo-2-fluorobenzyl)-6-[(5-methylpyridin-2-yl)methoxy]-1H-benzimidazol-2-yl}-2,2-dimethylcyclopropanecarboxylic acid]
7.24	CCC(CC)(Cc1nc2ccc(OCc3ccn(C)n3)cc2n1Cc1ccc(Br)cc1F)C(=O)O [Example 58, 2-({1-(4-Bromo-2-fluorobenzyl)-6-[(1-methyl-1H-pyrazol-3-yl)methoxy]-1H-benzimidazol-2-yl}methyl)-2-ethylbutanoic acid]
~6.12	Cc1ccc(COc2ccc3nc([C@@H]4CCCC[C@@H]4C(=O)O)n(Cc4ccc(N5CCC(F)(F)C5)cc4F)c3c2)nc1 (stereo in doubt) [Example 164, (1S*,2R*)-2-{1-[4-(3,3-Difluoropyrrolidin-1-yl)-2-fluorobenzyl]-6-[(5-methylpyridin-2-yl)methoxy]-1H-benzimidazol-2-yl}cyclohexanecarboxylic acid]
9.28	Cc1cnc(COc2ccc3nc([C@H]4CCCC[C@@H]4C(=O)O)n(Cc4c(F)cc(Br)cc4F)c3c2)c(F)c1 (racemic) [Example 124, racemic trans-2-{1-(4-Bromo-2,6-difluorobenzyl)-6-[(3-fluoro-5-methylpyridin-2-yl)methoxy]-1H-benzimidazol-2-yl}cyclohexanecarboxylic acid]
~7.10	CCC(CC)(Cc1nc2ccc(OCc3ccc(C)cn3)cc2n1Cc1ccc(OC(F)(F)F)c(F)c1)C(=O)O [Example 30, 2-Ethyl-2-({1-[3-fluoro-4-(trifluoromethoxy)benzyl]-6-[(5-methylpyridin-2-yl)methoxy]-1H-benzimidazol-2-yl}methyl)butanoic acid]
6.96	Cn1ccc(COc2ccc3nc(CC4(C(=O)O)CCCC4)n(Cc4ccc(Br)cc4)c3c2)n1 [Example 46, 1-({1-(4-Bromobenzyl)-6-[(1-methyl-1H-pyrazol-3-yl)methoxy]-1H-benzimidazol-2-yl}methyl)cyclopentanecarboxylic acid as the TFA salt]
8.60	Cc1ccc(COc2ccc3nc(C4CCCC[C@H]4C(=O)O)n(Cc4ccc(Br)c(F)c4)c3c2)nc1 (mixture of isomers) [Example 4, racemic cis-2-{1-(4-Bromo-3-fluorobenzyl)-6-[(5-methylpyridin-2-yl)methoxy]-1H-benzimidazol-2-yl}cyclohexanecarboxylic acid as the TFA salt]
8.85	Cc1ccc(COc2ccc3nc([C@@H]4CCCC[C@@H]4C(=O)O)n(Cc4ccc(Br)cc4)c3c2)nc1 (single isomer, unassigned) [Example 2]
8.66	Cc1ccc(COc2ccc3nc([C@@H]4CCCC[C@@H]4C(=O)O)n(Cc4ccc(N5CC(F)(F)C5)cc4F)c3c2)nc1 (stereo in doubt) [Example 167, (1S*,2R*)-2-{1-[4-(3,3-Difluoroazetidin-1-yl)-2-fluorobenzyl]-6-[(5-methylpyridin-2-yl)methoxy]-1H-benzimidazol-2-yl}cyclohexanecarboxylic acid]
~5.73	CCC(CC)(Cc1nc2ccc(OCc3ccn(C)n3)cc2n1Cc1ccc(C#N)cc1)C(=O)O [Example 49, 2-({1-(4-Cyanobenzyl)-6-[(1-methyl-1H-pyrazol-3-yl)methoxy]-1H-benzimidazol-2-yl}methyl)-2-ethylbutanoic acid as the TFA salt]
~6.40	Cc1ccc(COc2ccc3nc([C@H]4[C@H](C(=O)O)C4(C)C)n(Cc4ccc(Br)cc4)c3c2)nc1 (stereo in doubt) [Example 116, (1S*,3S*)-3-{1-(4-Bromobenzyl)-6-[(5-methylpyridin-2-yl)methoxy]-1H-benzimidazol-2-yl}-2,2-dimethylcyclopropanecarboxylic acid]

SMILES	pKi
Cc1ccc(COc2ccc3nc(C4CCCC[C@@H]4C(=O)O)n(Cc4ccc(Br)cc4)c3c2)nc1 (mixture of isomers) [Example 5, racemic trans-2-{1-(4-Bromobenzyl)-6-[(5-methylpyridin-2-yl)methoxy]-1H-benzimidazol-2-yl}cyclohexanecarboxylic acid as the TFA salt]	8.19
Cc1ccc(COc2ccc3nc(C4CCCC[C@@H]4C(=O)O)n(Cc4ccc(Br)cc4)c3c2)nc1 (single isomer, unassigned) [Example 6]	6.41
Cc1ccc(COc2ccc3nc([C@H]4CCCC[C@@H]4C(=O)O)n(Cc4ccc(N5CC(F)(F)C5)cc4F)c3c2)nc1 (racemic) [Example 171]	7.89

pKi: −log10 of the molar value. Counter-ions that a name gives are not always drawn.
